## Binding of CDR-mutated scFvs to a peptide of the spike HR2 region

Values reported by Li et al. 2023, doi:10.1038/s41467-023-39022-2 (FLAb copy).

Target peptide (SARS-CoV-2 spike, HR2 region): PDVDLGDISGINAS

Parent scFv Ab-14: VH joined to VL by a (GGGGS)3 linker. Changes lie in the heavy chain CDRs alone.
VH: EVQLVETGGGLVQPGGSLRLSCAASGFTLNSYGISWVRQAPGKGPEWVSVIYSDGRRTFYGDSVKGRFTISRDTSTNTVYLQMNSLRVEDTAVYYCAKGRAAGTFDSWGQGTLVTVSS
VL: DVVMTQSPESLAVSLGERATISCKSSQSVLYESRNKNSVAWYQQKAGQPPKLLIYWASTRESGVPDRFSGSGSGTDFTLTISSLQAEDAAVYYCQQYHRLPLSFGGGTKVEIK

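Phage display of a naive human antibody library on the peptide gave the parent. These sequences belong to a second round, designed from the earlier measurements on random variants of the parent. Their group label is 14H_En_Gibbs (En: ensemble of fine-tuned language models; Gibbs: Gibbs sampling). The scFvs were displayed on barcoded MATa yeast, the peptide on MATalpha yeast. After mating in shaken culture at 30 °C for 16 h, diploids were selected and their barcode pairs sequenced. Read counts were normalised to the haploid input and turned into Kd by a linear fit to BCL2-family pairs of known affinity, for each replicate. There are six technical replicates.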

Each variant is given by its three heavy chain CDRs, as the data file delimits them; those of the parent are GFTLNSYGIS, VIYSDGRRTFYGDSVK, GRAAGTFDS. Numbers give log10(Kd / nM), so 0 is 1 nM and 3 is 1 µM. Smaller is tighter. "n.d." means that the variant was in the library but no mating with the target was seen in that replicate; the authors take this as a sign of poor binding, and no number exists. The parent sequence was in this pool as ten entries: three were never detected, three once, and four in most replicates, with averages from 0.34 to 2.37.

CDR-H1,CDR-H2,CDR-H3,"log10 Kd, replicates",signal with controls
GFILDEYGIS,VIYADGSRVFYADTVK,GLLGKLVVV,n.d. / n.d. / n.d. / n.d. / n.d. / n.d.,0/18
GFDLMEYGVS,VIYADGQRAFYTDSVK,GKGAGTALI,n.d. / n.d. / n.d. / n.d. / n.d. / n.d.,0/18
GDNINEYGIS,VIYADGLRKQYSENVK,GYNAGTLDE,2.07 / n.d. / n.d. / n.d. / n.d. / n.d.,0/18
GKSVDEYGIS,VIYADGMRAEYQNSVK,GTTGGDVFV,n.d. / n.d. / 1.01 / n.d. / n.d. / n.d.,0/18
GYDLVEYGIS,VIYADGQRTAYADTVK,GNHGGIIDV,n.d. / n.d. / 2.53 / n.d. / n.d. / n.d.,0/18
GFDLDEMGIS,VIYADGRRTAYSNAVK,GNNVYGLMV,n.d. / n.d. / n.d. / n.d. / n.d. / n.d.,0/18
GYNIDEYGIS,VIYADGQRTAYQNAVK,GEQAGIMMY,n.d. / n.d. / n.d. / n.d. / n.d. / n.d.,0/18
GKDIEEYGIS,VIYADGMRQAYKESVK,GQVAGIGKF,n.d. / n.d. / n.d. / n.d. / n.d. / n.d.,0/18
GFDVMEYGIS,VIYADGMRQAYTNKVK,GGITSSGLI,n.d. / n.d. / n.d. / n.d. / n.d. / n.d.,0/18
GFSIDEYGIS,VIYADGTRTAVATSVK,GQLAAYFDK,n.d. / n.d. / n.d. / n.d. / n.d. / n.d.,0/18
GMDLNEYGIS,VIYADGLRTAYINAVK,GKQSVIVGH,n.d. / n.d. / n.d. / n.d. / n.d. / 3.06,0/18
AFNLEDYGIS,VIYADGHRASYVESVK,GGLAGTFVI,n.d. / n.d. / n.d. / n.d. / n.d. / n.d.,0/18
GNELSEYGIS,VIYADGIRTNYSQNVK,GTLAGTFTQ,n.d. / n.d. / n.d. / n.d. / n.d. / n.d.,1/18 (2.72)
GFNLSEYGIS,VIYADGMRSNYADSVK,GHGGNFFID,n.d. / n.d. / n.d. / n.d. / n.d. / n.d.,0/18
GFDLDKYGIS,VIYADGRRKFYQNQFK,GGQTGTFDI,n.d. / n.d. / n.d. / n.d. / n.d. / n.d.,0/18
GEDLDEYGIS,VIYADGQRTAYDESVK,GTIAGSFFH,n.d. / n.d. / n.d. / n.d. / n.d. / n.d.,0/18
GFALDEYGIS,VIYADGKRTFYSNTVK,GEDGVFYDQ,n.d. / n.d. / 3.28 / n.d. / n.d. / n.d.,1/18 (2.50)
GFSLGEYGIS,VIYADGKRMVYADSVK,GSESGWFDI,n.d. / n.d. / n.d. / n.d. / n.d. / n.d.,0/18
GEDLMEYGIS,VIYADGERKSYVESVK,GGVSVTFST,n.d. / n.d. / n.d. / n.d. / n.d. / n.d.,0/18
GKHLDEYGIS,VIYADGQRVAYSETVK,GIQGVNVDV,1.52 / 1.22 / 1.95 / 1.69 / 0.80 / 0.18,0/18
GFNLDEYGVS,VIYADGMRMAYQNKVK,GQKGDVFLM,n.d. / n.d. / n.d. / n.d. / n.d. / n.d.,0/18
GFSLNEYGIS,VIYADGMRTYYTESVK,GNINDQLFV,n.d. / n.d. / n.d. / n.d. / n.d. / n.d.,0/18
GFDLGEYGIS,VIYADGQRFAYAQQFK,GEAGGAFDL,n.d. / n.d. / n.d. / n.d. / n.d. / n.d.,1/18 (3.04)
GFDLNEYGIS,VIYADGMRVRVANNFK,GKLNTTGIV,n.d. / n.d. / n.d. / n.d. / n.d. / n.d.,0/18
GFDLDEYGIS,VIYADGNRQVYQDNVK,GGRFVTNIV,n.d. / n.d. / n.d. / n.d. / n.d. / n.d.,0/18
GHSLDEYGIS,VIYADGMRTAYTDDVK,GKWGEDVVT,n.d. / n.d. / n.d. / n.d. / n.d. / n.d.,0/18
GFDLGEYGVS,VIYADGLRAQYASKVK,GNFSGNIDK,n.d. / n.d. / n.d. / n.d. / n.d. / n.d.,0/18
GFNLDEYGIS,VIYADGVRTKYINNVK,GVLQDLQMG,n.d. / n.d. / n.d. / n.d. / n.d. / n.d.,0/18
GDSLNEYGIS,VIYADGVRARYADPVK,GENDGLFDQ,n.d. / n.d. / 1.82 / n.d. / 2.22 / n.d.,0/18
GFDINEYGIS,VIYADGMRSYYDDKVK,GSNGDLLEV,n.d. / n.d. / n.d. / n.d. / n.d. / n.d.,0/18
GFSLDEVGIS,VIYADGRRAFYSDNVK,GENNVVFNE,n.d. / n.d. / n.d. / n.d. / n.d. / n.d.,0/18
GEDLDEYGIS,VIYADGRRVVYQDQVK,GELSGSFAQ,n.d. / n.d. / n.d. / n.d. / n.d. / n.d.,1/18 (0.58)
GFKLEEYGIS,VIYADGKRVAYQDKVK,GKHAGMFLV,n.d. / n.d. / n.d. / n.d. / n.d. / n.d.,0/18

Three control strains display no target. For all heavy chain designs, 1% of the pairings with them gave a signal, with a median of 2.08 and one signal in twenty below 0.84, so weak values seen in few replicates may be background. Also given: how often the same scFv was detected with the empty control strains, with their mean in brackets. A sequence measured in both rounds can read differently, since the two assays cover different ranges. The authors averaged sequences with at least three values out of six and counted those with two or fewer as poor binders.